Experimental data as given in patent US9044491B2, “Method for improving blood flow using stilbenoid derivatives” (The Board of Trustees of the University of Arkansas, priority 2010, dated 2015).

Amino acid sequences for entries named in this document (tags omitted). Residues count along the entry.
UniProt Q9HAW8, 26-530 limits assumed: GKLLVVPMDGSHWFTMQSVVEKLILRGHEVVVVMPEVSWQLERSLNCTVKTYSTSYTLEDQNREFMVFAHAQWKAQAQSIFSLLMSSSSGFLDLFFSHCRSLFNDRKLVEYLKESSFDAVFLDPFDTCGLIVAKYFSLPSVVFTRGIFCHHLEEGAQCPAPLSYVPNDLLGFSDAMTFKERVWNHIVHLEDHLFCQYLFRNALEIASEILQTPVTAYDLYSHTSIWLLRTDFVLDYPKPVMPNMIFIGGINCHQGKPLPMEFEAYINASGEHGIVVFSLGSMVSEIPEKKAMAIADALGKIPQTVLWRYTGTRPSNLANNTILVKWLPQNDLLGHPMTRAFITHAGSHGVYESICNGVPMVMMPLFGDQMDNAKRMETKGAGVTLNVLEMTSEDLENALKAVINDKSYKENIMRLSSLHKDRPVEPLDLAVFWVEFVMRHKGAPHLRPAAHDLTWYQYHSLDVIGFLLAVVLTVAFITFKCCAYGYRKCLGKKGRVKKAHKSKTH
UniProt P22309, 26-533 limits assumed: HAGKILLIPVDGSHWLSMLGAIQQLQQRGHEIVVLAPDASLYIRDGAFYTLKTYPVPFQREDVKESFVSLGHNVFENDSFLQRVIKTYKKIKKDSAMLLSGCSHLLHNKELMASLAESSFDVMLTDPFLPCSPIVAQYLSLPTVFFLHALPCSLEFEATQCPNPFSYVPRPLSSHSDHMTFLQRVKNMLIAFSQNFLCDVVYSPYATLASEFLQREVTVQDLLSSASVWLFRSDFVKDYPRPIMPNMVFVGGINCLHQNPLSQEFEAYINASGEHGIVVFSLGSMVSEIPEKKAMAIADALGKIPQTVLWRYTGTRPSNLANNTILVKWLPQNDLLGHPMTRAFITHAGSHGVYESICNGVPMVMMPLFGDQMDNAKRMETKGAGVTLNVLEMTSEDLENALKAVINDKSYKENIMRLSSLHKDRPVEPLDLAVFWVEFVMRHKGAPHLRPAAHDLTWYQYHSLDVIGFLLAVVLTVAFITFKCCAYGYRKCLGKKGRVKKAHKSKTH

Legend:
[1] = biological target: human UGT1A10 (Homo sapiens, UniProt Q9HAW8); test: Glucuronidation by recombinant human UGT1A10 (activity and kinetic constants); type: in vitro ADME; details: product 3-glucuronide (3G)
[2] = biological target: human UGT1A1 (Homo sapiens, UniProt P22309); test: Glucuronidation by recombinant human UGT1A1 (activity and kinetic constants); type: in vitro ADME

CC(C)/C=C/c1c(O)cc(/C=C/c2ccc(O)c(O)c2)cc1O
--: Kinetics [1] | Km [1] | Kinetics ([2]; product 3-glucuronide (3G)) | Km ([2]; product 3-glucuronide (3G)) | Kinetics ([2]; product 4′-glucuronide (4′G)) | Km ([2]; product 4′-glucuronide (4′G))
